We go through eleven compounds from paper PMC9570967 (Molecules, 2022).

Protein sequences, listed by entry. Tags and fused reporters are not part of them.
UniProt P35372, whole entry: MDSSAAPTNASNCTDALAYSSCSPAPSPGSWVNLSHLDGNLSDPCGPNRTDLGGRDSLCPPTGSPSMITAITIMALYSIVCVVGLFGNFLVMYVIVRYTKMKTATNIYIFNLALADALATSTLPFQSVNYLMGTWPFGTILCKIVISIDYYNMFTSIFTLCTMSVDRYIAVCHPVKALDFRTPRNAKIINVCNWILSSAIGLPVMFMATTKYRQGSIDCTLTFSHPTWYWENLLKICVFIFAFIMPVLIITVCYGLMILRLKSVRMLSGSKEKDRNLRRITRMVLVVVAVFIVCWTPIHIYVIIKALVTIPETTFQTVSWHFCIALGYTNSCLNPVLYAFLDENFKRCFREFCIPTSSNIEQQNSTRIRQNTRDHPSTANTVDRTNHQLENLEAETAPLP

The target in one assay is human μ-opioid receptor (OPRM1) (Homo sapiens, UniProt P35372). As to the kind of experiment: cell-based.
Conditions: not given
In turn, `C=C[C@H]1[C@@H]2CCC[C@@]1(c1cccc(OC)c1)CCN2CCc1ccccc1` [Compound 13, (1S,5R,9R)-5-(3-Methoxyphenyl)-2-phenethyl-9-vinyl-2-azabicyclo [3.3.1]nonane] returned an EC50 greater than 10000 nM.

In turn, `C=C[C@@H]1[C@@H]2CCC[C@@]1(c1cccc(O)c1)CCN2CCc1ccccc1` [Compound 14, 3-((1S,5R,9S)-2-Phenethyl-9-vinyl-2-azabicyclo [3.3.1]nonan-5-yl)phenol] yielded an EC50 of 3.94 nM.

Consider `C=C[C@H]1[C@@H]2CCC[C@@]1(c1cccc(O)c1)CCN2CCc1ccccc1` [Compound 15, 3-((1S,5R,9R)-2-Phenethyl-9-vinyl-2-azabicyclo [3.3.1]nonan-5-yl)phenol], for which the EC50 was greater than 10000 nM.

`C/C=C\[C@@H]1[C@H]2CCC[C@]1(c1cccc(O)c1)CCN2CCc1ccccc1` [Compound 18, 3-((1R,5S,9S)-2-Phenethyl-9-((Z)-prop-1-en-1-yl)-2-azabicyclo [3.3.1]nonan-5-yl)phenol] yielded an EC50 of 0.07 nM.

As to `C/C=C\[C@H]1[C@@H]2CCC[C@@]1(c1cccc(O)c1)CCN2CCc1ccccc1` [Compound 20, 3-((1S,5R,9R)-2-Phenethyl-9-((Z)-prop-1-en-1-yl)-2-azabicyclo [3.3.1]nonan-5-yl)phenol], the EC50 was greater than 10000 nM.

In the case of `C/C=C\[C@@H]1[C@@H]2CCC[C@@]1(c1cccc(O)c1)CCN2CCc1ccccc1` [Compound 21, 3-((1S,5R,9S)-2-Phenethyl-9-((Z)-prop-1-en-1-yl)-2-azabicyclo [3.3.1]nonan-5-yl)phenol], it took 4.66 nM to reach a half-maximal effect (EC50).

For `CC/C=C\[C@H]1[C@H]2CCC[C@]1(c1cccc(O)c1)CCN2CCc1ccccc1` [Compound 23, 3-((1R,5S,9R)-9-((Z)-But-1-en-1-yl)-2-phenethyl-2-azabicyclo [3.3.1]nonan-5-yl)phenol], the EC50 came out at 11.6 nM.

In turn, `CC/C=C\[C@@H]1[C@H]2CCC[C@]1(c1cccc(O)c1)CCN2CCc1ccccc1` [Compound 24, 3-((1R,5S,9S)-9-((Z)-But-1-en-1-yl)-2-phenethyl-2-azabicyclo [3.3.1]nonan-5-yl)phenol] displayed an EC50 of 14.7 nM.

`CC/C=C\[C@@H]1[C@@H]2CCC[C@@]1(c1cccc(O)c1)CCN2CCc1ccccc1` [Compound 26, 3-((1S,5R,9S)-9-((Z)-But-1-en-1-yl)-2-phenethyl-2-azabicyclo [3.3.1]nonan-5-yl)phenol] had an EC50 greater than 10000 nM.

In the case of `CC/C=C\[C@H]1[C@@H]2CCC[C@@]1(c1cccc(O)c1)CCN2CCc1ccccc1` [Compound 27, 3-((1S,5R,9R)-9-((Z)-But-1-en-1-yl)-2-phenethyl-2-azabicyclo [3.3.1]nonan-5-yl)phenol], the EC50 was greater than 10000 nM.

Staying with this assay, now noted: read-out: MOR Agonist %Emax ± SEM.
In the case of `C/C=C\[C@H]1[C@H]2CCC[C@]1(c1cccc(O)c1)CCN2CCc1ccccc1` [Compound 17, 3-((1R,5S,9R)-2-Phenethyl-9-((Z)-prop-1-en-1-yl)-2-azabicyclo [3.3.1]nonan-5-yl)phenol], the Emax is 89.5%.
